This is a selection; strong and weak results do not stand in their true shares. The source made the active and inactive calls. Cut-off read from the data, not from the text of the source: active = inhibition above about 11%; inactive = the rest.

By UniProt entry, the sequences of proteins in these tests, tags left out.
UniProt Q01970, whole entry: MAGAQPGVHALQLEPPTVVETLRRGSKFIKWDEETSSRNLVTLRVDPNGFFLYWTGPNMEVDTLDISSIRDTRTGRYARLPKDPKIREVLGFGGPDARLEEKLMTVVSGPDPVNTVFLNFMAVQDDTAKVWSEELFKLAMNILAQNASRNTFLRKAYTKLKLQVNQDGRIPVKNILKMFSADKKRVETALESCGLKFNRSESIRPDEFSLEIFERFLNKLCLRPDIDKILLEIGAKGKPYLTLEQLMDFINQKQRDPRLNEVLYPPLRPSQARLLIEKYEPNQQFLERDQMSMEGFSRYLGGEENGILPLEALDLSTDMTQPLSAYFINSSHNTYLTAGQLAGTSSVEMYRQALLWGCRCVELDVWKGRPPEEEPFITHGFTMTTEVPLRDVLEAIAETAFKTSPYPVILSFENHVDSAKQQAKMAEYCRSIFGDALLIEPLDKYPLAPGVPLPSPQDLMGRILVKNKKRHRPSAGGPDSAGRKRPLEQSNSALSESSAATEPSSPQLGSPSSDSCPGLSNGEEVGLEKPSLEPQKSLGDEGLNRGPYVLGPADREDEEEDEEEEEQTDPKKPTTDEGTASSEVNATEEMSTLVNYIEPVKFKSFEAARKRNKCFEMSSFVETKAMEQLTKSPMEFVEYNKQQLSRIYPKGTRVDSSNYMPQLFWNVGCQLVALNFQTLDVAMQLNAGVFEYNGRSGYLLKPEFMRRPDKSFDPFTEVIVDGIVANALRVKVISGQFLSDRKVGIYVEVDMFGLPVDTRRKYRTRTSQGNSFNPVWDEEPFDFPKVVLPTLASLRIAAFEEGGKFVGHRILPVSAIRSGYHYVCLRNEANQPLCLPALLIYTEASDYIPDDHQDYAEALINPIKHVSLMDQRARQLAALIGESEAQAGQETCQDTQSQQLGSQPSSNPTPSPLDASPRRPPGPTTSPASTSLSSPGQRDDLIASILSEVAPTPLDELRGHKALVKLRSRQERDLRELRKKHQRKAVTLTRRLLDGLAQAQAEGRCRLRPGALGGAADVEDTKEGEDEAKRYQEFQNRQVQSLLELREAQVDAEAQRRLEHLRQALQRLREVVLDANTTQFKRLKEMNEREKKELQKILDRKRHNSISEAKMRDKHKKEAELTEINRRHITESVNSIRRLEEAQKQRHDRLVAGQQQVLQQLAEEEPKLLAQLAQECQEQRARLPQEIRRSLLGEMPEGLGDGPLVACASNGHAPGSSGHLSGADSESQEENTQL

The target of the test is 1-phosphatidylinositol 4,5-bisphosphate phosphodiesterase beta-3 (Homo sapiens) (UniProt Q01970). Nature of the test: retest of human PLCB3 enzyme blockers – biochemical, fluorescence, purified enzyme, confirmation (AID 743261). The settings on record: purified PLC-beta3, fluorogenic substrate fluorescence; at 12.3 µM; hits give high values.
Take `CCC(c1nnnn1C1CCCCC1)N1CCC(n2c(=O)[nH]c3ccccc32)CC1` (stereo unspecified): the inhibition was inactive: 2.89%.

In general, inhibition refers to how much of the control response was suppressed.

For the origin of these results see PubChem BioAssay AID743261 (The Scripps Research Institute Molecular Screening Center, 2014).
